{"sequences": {"note": "The chains behind the UniProt entries cited, without tags or fusion partners. Where a name states a change or a piece, a line headed by the entry shows the natural chain unless it says otherwise.", "UniProt O60674": "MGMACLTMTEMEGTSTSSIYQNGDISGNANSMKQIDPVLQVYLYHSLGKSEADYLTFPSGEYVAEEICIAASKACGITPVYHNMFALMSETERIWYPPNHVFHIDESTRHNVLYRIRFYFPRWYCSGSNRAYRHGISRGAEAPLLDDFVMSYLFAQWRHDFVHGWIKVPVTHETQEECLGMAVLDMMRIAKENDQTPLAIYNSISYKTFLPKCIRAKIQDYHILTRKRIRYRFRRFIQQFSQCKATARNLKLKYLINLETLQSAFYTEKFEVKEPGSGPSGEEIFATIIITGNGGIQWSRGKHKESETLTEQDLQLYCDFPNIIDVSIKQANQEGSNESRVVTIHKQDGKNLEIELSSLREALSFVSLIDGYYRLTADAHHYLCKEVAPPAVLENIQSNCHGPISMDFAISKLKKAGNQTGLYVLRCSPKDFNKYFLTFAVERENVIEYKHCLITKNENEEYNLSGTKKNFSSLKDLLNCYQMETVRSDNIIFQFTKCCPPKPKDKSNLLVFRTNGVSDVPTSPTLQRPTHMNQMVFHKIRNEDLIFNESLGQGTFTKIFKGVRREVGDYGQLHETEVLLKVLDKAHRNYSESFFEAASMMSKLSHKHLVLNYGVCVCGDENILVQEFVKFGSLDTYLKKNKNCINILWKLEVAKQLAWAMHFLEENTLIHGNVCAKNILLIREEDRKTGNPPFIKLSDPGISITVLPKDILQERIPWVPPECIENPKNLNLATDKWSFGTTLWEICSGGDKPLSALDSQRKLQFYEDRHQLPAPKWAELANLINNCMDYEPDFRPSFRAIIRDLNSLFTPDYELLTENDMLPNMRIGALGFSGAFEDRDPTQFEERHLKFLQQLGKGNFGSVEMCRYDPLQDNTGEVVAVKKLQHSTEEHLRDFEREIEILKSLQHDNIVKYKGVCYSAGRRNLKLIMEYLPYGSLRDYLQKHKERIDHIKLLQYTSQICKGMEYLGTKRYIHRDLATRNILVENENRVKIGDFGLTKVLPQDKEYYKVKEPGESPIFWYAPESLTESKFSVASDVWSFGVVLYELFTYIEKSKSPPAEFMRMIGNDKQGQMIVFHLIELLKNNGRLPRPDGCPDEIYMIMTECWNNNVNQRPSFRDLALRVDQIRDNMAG"}, "source": "patent US10246466B2", "about": "“Diaryl macrocycles as modulators of protein kinases” (TP THERAPEUTICS, INC., priority 2014, dated 2019)", "biological_target": "JAK2 (Homo sapiens (Human), UniProt O60674)", "test": "KINOMEscan kinase binding assay (DiscoveRx)", "protocol": "Kinase binding assays were performed at DiscoveRx using the general KINOMEscan Kd Protocol (Fabian, M. A. et al., “A small molecule-kinase interaction map for clinical kinase inhibitors,” Nat. Biotechnol. 2005, 23(3):329-36). For most assays, kinase-tagged T7 phage strains were prepared in an E. coli host derived from the BL21 strain. E. coli were grown to log-phase and infected with T7 phage and incubated with shaking at 32° C. until lysis. The lysates were centrifuged and filtered to remove cell debris. The remaining kinases were produced in HEK-293 cells and subsequently tagged with DNA for qPCR detection. Streptavidin-coated magnetic beads were treated with biotinylated small molecule ligands for 30 minutes at room temperature to generate affinity resins for kinase assays. The liganded beads were blocked with excess biotin and washed with blocking buffer (SeaBlock (Pierce), 1% BSA, 0.05% Tween 20, 1 mM DTT) to remove unbound ligand and to reduce nonspecific binding. […] All reactions were performed in polystyrene 96-well plates in a final volume of 0.135 mL. The assay plates were incubated at room temperature with shaking for 1 hour and the affinity beads were washed with wash buffer (1×PBS, 0.05% Tween 20). […] The kinase concentration in the eluates was measured by qPCR."}
{"smiles": "C[C@@H]1CNC(=O)c2cnn3ccc(nc23)N[C@H](C)c2cc(F)ccc2O1", "note": "[Example 92, (7R,13R)-11-fluoro-7,13-dimethyl-6,7,13,14-tetrahydro-1,15-ethenopyrazolo[4,3-f][1,4,8,10]benzoxatriazacyclotridecin-4(5H)-one]", "values": [{"measurement": "Kd", "value": 0.12, "unit": "nM"}]}
